From PubChem BioAssay AID624465 (National Center for Advancing Translational Sciences (NCATS), 2012) come the findings set out here.

The chains behind the UniProt entries cited, without tags or fusion partners.
UniProt P14416, whole entry: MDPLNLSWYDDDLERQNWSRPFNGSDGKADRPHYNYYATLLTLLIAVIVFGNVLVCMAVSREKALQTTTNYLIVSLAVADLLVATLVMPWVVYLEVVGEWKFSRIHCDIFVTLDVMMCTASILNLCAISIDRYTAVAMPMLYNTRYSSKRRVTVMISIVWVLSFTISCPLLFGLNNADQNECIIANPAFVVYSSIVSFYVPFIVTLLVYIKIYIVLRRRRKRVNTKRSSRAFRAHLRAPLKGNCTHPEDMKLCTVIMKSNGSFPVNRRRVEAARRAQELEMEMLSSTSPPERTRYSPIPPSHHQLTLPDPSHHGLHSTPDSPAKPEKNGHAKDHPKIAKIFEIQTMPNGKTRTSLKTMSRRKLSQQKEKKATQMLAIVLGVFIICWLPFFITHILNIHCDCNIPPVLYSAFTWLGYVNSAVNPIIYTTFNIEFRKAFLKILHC

Only a part is listed here, and it is no random draw. Some results for these compounds are left out of this collection, so the calls shown say nothing about other tests. Active and inactive are the calls of the source. Rule as the data show it: active = activation above about 40%; inconclusive = between about 15% and that limit; inactive = weaker than that.

The target in the assay is D(2) dopamine receptor (Homo sapiens) (UniProt P14416). The assay is described as follows: Beta-Arrestin HTS for Positive Allosteric Modulators of the Human D2 Dopamine Receptor: Agonists. As to conditions: DiscoveRx PathHunter D2 beta-arrestin, luminescence, 90 min; stronger effect = higher value; 100% = 57 uM dopamine signal. The text has this:
There is great interest in identifying small molecule ligands for G-protein coupled receptors (GPCRs) as nearly 50% of all FDA-approved drugs target these important receptor proteins. […] Amongst the dopamine receptors (DARs), the D2 is arguably one of the most validated drug targets in neurology and psychiatry. For instance, all receptor-based antiparkinsonian drugs primarily work via stimulating the D2 DAR, whereas all FDA-approved antipsychotic agents are antagonists of this receptor. The D2 DAR is also therapeutically targeted in other disorders such as restless legs syndrome, tardive dyskinesia, Tourette's syndrome, and hyperprolactinemia.
To this end, a miniaturized qHTS screen was developed to be screened against the Molecular Libraries Small Molecule Repository (MLSMR). This assay seeks to identify agonists against the D2 DAR.
NIH Molecular Libraries Probe Production Network [MLPCN]
NIH Chemical Genomics Center [NCGC]
PI Name: David Sibley, National Institutes of Neurological Disorders and Stroke
DiscoveRx D2 cells were thawed from frozen stock and seeded at 2,100 cells/ 3 uL/well media (DiscoveRx Plating Reagent 2) with MultiDrop Combi dispenser (Thermo Scientific, Logan, UT) onto white tissue culture treated 1536-well Aurora plates (Brooks Automation, Chelmsford, MA) and allowed to attach overnight at 37 deg C, 5% CO2. Next, 23 nL/well of compound solutions in DMSO were added with a pintool transfer (Kalypsis, San Diego, CA). As the positive control, 1 uL/well dopamine (EC100, 57 uM final concentration) diluted in buffer (HBSS + 10 mM HEPES + SMB + 0.1% Tween-20) was dispensed to 1 column of each plate. The rest of the plate was dispensed with buffer only, 1 uL/well as well. The cells were stimulated by compounds or dopamine control for 90 minutes at 37 deg C, 5% CO2, after which 1.5 ul/well of DiscoveRx detection reagent was added with BioRAPTR FRD dispenser. The detection reagent was prepared by mixing of Galacton Star Substrate, Emerald II solution and PathHunter buffer (supplied by the assay kit) together at 1:5:19 proportion accordingly just prior to dispensing. The plates were incubated at ambient temperature for 1 hour and then the luminescent signal was read on ViewLux plate reader (PerkinElmer, Waltham, MA).
Turning to `CN(C)C1(CNC(=O)c2ccc(Br)cc2)CCCCC1`, the activation is inactive: -4.2%.

On to `COc1cc(C(=O)NCC2(N(C)C)CCCCC2)c([N+](=O)[O-])cc1OC`, for which the activation was inactive: -4.32%.

Consider `COc1cccc(C(=O)NCC2(N3CCCCC3)CCCCC2)c1`, for which the activation is inactive: 0.0873%.

In the case of `COc1ccc(Cl)cc1C(=O)NCC1(N(C)C)CCCCC1`, the activation was inactive: -0.957%.

In the case of `O=C(NCC1(N2CCCCC2)CCCCC1)c1cccc(Cl)c1`, the activation was inactive: -0.598%.

As to `O=C(OC1CN2CCC1CC2)C(CO)(c1ccccc1)c1ccccc1` (stereo unspecified), the activation was inactive: -1.81%.

In the case of `COc1ccc(Br)c(C(=O)NCC2(N3CCCCC3)CCCCC2)c1`, the activation is inactive: -3.45%.

Take `C=C(C)C#CC(O)(C(=O)OC1CCN(C)CC1)c1ccccc1` (stereo unspecified): the activation was inactive: -4.04%.

With `CN(C)c1cccc(C(=O)NCC2(N(C)C)CCCCC2)c1`, the activation is inactive: -2.71%.

Regarding `CC(C)Oc1ccc(C(=O)NCC2(N(C)C)CCCCC2)cc1`, the activation is inactive: 0.378%.

For `O=C(OCCN1CCCC1)C(O)(c1ccccc1)c1ccccc1`, the activation was inactive: -1.87%.

Turning to `O=C(NCC1(N2CCCCC2)CCCCC1)c1cc([N+](=O)[O-])ccc1Cl`, the activation is inactive: -1.01%.

For the compound `CN1[C@@H]2CC[C@H]1CC(OC(=O)C(O)(c1ccccc1)c1ccccc1)C2` (stereo partly specified), the activation was inactive: -1.92%.

With `CC(C)N1C(=O)CC2(CCN(CCOC(=O)C(O)(c3ccccc3)c3ccccc3)CC2)C1=O`, the activation is inactive: -0.995%.

In the case of `CCN(CC)CC(C)C(C)OC(=O)C(O)(c1ccccc1)c1ccccc1` (stereo unspecified), the activation is inactive: -3.48%.

On to `COc1cc(SC)ccc1C(=O)NCC1(N(C)C)CCCCC1`, for which the activation was inactive: 2.59%.

Turning to `Cc1ccc(C(=O)NCC2(N3CCCCC3)CCCCC2)cc1`, the activation was inactive: -7.19%.

For `Cc1ccccc1C(=O)NCC1(N2CCCCC2)CCCCC1`, the activation was inactive: -5.39%.

For the compound `CN(C)c1ccc(C(=O)NCC2(N(C)C)CCCCC2)cc1`, the activation is inactive: 0.169%.

Regarding `CN(C)C1CCCC1OC(=O)C(O)(c1ccccc1)c1ccccc1` (stereo unspecified), the activation was inactive: -4.84%.

Regarding `C=CCN1CCN(CCOC(=O)C(O)(c2ccccc2)c2ccccc2)CC1`, the activation was inactive: 4.3%.

In the case of `O=C(NCC1(N2CCCCC2)CCCCC1)c1cc(F)c(F)cc1Cl`, the activation was inactive: -2.18%.

Take `CCN1CCCC(OC(=O)C2(O)c3ccccc3C=Cc3ccccc32)C1` (stereo unspecified): the activation was inactive: -1.94%.

`Cc1cc(C(=O)NCC2(N3CCCCC3)CCCCC2)ccc1[N+](=O)[O-]`: the activation was inactive: 3.11%.

Take `O=C(NCC1(N2CCCCC2)CCCCC1)c1cccc(Br)c1`: the activation was inactive: 0.162%.

Turning to `COc1ccc(C(=O)NCC2(N(C)C)CCCCC2)cc1`, the activation is inactive: 0.101%.
